Reference: patent US10137134B2, “Molybdenum compounds for use in the treatment of cyanide poisoning” (dated 2018)

Columns and labels:
[1] = cited from earlier work
[2] = system: freshly isolated rat hepatocytes; assay: Hepatocyte model, safety study (ATP activity correlated with survival); conditions: for % Survival: substance only: 0.15 mM antidote, 5 mM sodium thiosulfate or 1 mM potassium cyanide, 1 hr at 37° C
[3] = Catalytic activity testing: conversion of cyanide to thiocyanate with thiosulfate; conditions: 20 minutes, no molybdenum catalyst
[4] = Stoichiometric activity testing: reaction of complexes with cyanide to thiocyanate; conditions: for Measured Concentration [SCN−](aq): veronal buffer pH 7.4, one equivalent of cyanide, one hour reaction time, complex about 0.08-0.10 mM
[5] = Solubility determination (saturated aqueous solution, absorbance); conditions: for Water Solubility: molar concentration multiplied by molecular weight; for Calc. Concentration [complex](aq): saturated solution in water
PT45 (pancreas cancer) = assay: In vitro toxicity, MTT assay, PT45; conditions: 72 hours, averages for four repeats
MCF-7 (breast cancer) = assay: In vitro toxicity, MTT assay, MCF-7; conditions: 72 hours, averages for four repeats
HT29 (colon cancer) = assay: In vitro toxicity, MTT assay, HT29; conditions: 72 hours, averages for four repeats

Q: Which “safe dose for children” value [1] does the source give for CC(C)Cc1ccc(C(C)C(=O)O)cc1 (stereo not drawn) here?
A: 10 mg/kg

Q: What does the source list for O=C1C[SH]2CC(=O)[O][Mo]23(=[O])([O]1)[S][Mo]1(=[O])([S][S]1)[S]3 (stereo not drawn)?
A: survival (ATP activity), FIG. 6 ([2]; all of the concentrations tested): very well tolerated; % Survival ([2]; Potassium Salt): over 95%; % Survival ([2]; listed as Antidote, Potassium Salt): 95.3%; % Survival ([2]; listed as antidote, Potassium Salt): 95%

Q: With O=S(O)(O)=S as the compound, how does the “% Survival” value [2] read?
A: 63.17%

Q: And the “thiocyanate formation from cyanide and thiosulfate without the catalyst” value [3]?
A: does not produce significant amount of thiocyanate

Q: With (Et4N)2[MoOS8] as the compound, how does the “Amounts of thiocyanate formed in equivalents per mole complex” value (shortened to “Amounts … per mole complex”) ([4]; pH 7.4, 1 equivalent of cyanide reacted per mole complex) read?
A: 0.5 equivalents per mole complex

Q: What about the “Amounts … per mole complex” value ([4]; pH 7.4, 6 equivalents of cyanide reacted per mole complex) of the same compound?
A: >2 equivalents per mole complex

Q: And the “Amounts … per mole complex” value ([4]; pH 9.2, 1 equivalent of cyanide reacted per mole complex)?
A: 0.9 equivalents per mole complex

Q: And the “Amounts … per mole complex” value ([4]; pH 9.2, 6 equivalents of cyanide reacted per mole complex)?
A: >2 equivalents per mole complex

Q: With (Et4N)[CpMo2O2S4] as the compound, how does the “Measured Concentration [SCN−](aq)” value [4] read?
A: 0.095 mM

Q: With (Et4N)[Mo2O2S4(C5H11NO2S)] as the compound, how does the “survival (ATP activity), FIG. 5” value ([2]; higher concentrations) read?
A: reduced tolerance

Q: With (Et4N)[Mo2O2S4(leu)] as the compound, how does the “Measured Concentration [SCN−](aq)” value [4] read?
A: 0.082 mM

Q: Which “Measured Concentration [SCN−](aq)” value [4] does the source give for K2[Mo2O2S2(cys)2] here?
A: 0.000 mM

Q: What about the “Water Solubility” value [5] of the same compound?
A: 136.0 mg/mL

Q: What about the “Calc. Concentration [complex](aq)” value [5] of the same compound?
A: 0.204 M

Q: Which “Water Solubility” value [5] does the source give for Na[Mo2O2S4(leu)] here?
A: 60.0 mg/mL

Q: And the “Calc. Concentration [complex](aq)” value [5]?
A: 0.120 M

Q: With Na[Mo2O2S4(met)] as the compound, how does the “Measured Concentration [SCN−](aq)” value [4] read?
A: 0.108 mM

Q: What about the “Water Solubility” value [5] of the same compound?
A: 25.0 mg/mL

Q: What about the “Calc. Concentration [complex](aq)” value [5] of the same compound?
A: 0.049 M

Q: For “[Mo2O2S2(NCS)4]^2−. Tetraethylammonium Salt”, which IC50 (PT45 (pancreas cancer)) is on record?
A: 83 µM

Q: What about the IC50 (MCF-7 (breast cancer)) of the same compound?
A: 262 µM

Q: And the IC50 (HT29 (colon cancer))?
A: 374 µM

Q: With cisplatin as the compound, how does the IC50 (PT45 (pancreas cancer)) read?
A: 0.8 µM

Q: And the IC50 (HT29 (colon cancer))?
A: 1 µM
